Experiment: in vivo
Details: mouse, ip

O=C1NC(=O)C(c2ccccc2)(c2ccccc2)N1 [III, 5,5-diphenyl-2,4-imidazolidinedione, reference compound]
LD50 at 48 h: 95 mg/kg | selectivity ratio: 0.8

Reference: patent publication US4110536A, “Derivatives of 5-(indol-3-yl)hydantoin” (Miles Laboratories, Inc., priority 1977, dated 1978)
